Values of other authors in patent publication US20230062537A1, “Therapy of oxygen pulses for treating neurodegenerative disorders such as Parkinson Disease (PD), Alzheimer’s Disease (AD), Amiotrophic Lateral Sclerosis (ALS) or Motor Neuron Disease (MND) and other dementias, and Lymphedema, Arthritis and Depression” (priority 2021, published 2023).

System: MND
Conditions: clinical trials; cited from earlier work

## Nc1nc2ccc(OC(F)(F)F)cc2s1 [riluzole]
  survival: prolong survival by several months
